Assay results as given in patent US8974768B2, “Azo compounds reducing formation and toxicity of amyloid beta aggregation intermediates” (Max-Delbrueck-Centrum fuer Molekulare Medizin, priority 2010, dated 2015).

System: secreted Aβ monomers and dimers

Question: With CN(C)c1ccc(N=Nc2ccc(N=C=S)cc2)cc1 [Compound 10, 4-((4-isothiocyanatophenyl)diazenyl)-N,N-dimethylaniline] as the compound, how does the Dimer reduction read?
Answer: ++

Question: With O=[N+]([O-])c1ccc(N=Nc2ccc(Nc3ccccc3)cc2)cc1 [Compound 2, 4-((4-nitrophenyl)diazenyl)-N-phenylaniline] as the compound, how does the Dimer reduction read?
Answer: ++

Question: With CN(C)c1ccc(N=Nc2ccccc2)cc1 [Compound 21, N,N-dimethyl-4-(phenyldiazenyl)aniline] as the compound, how does the Dimer reduction read?
Answer: ++

Question: c1ccc(N=Nc2ccccc2)cc1 [compound 33, 1,2-diphenyldiazene, reference compound] was tested. Which Dimer reduction did it give?
Answer: −

Question: Cc1cc(N=Nc2ccccc2C)ccc1N [Compound 26, 2-methyl-4-(o-tolyldiazenyl)aniline] was tested. Which Dimer reduction did it give?
Answer: toxic
